What was measured:
[1] = molecular target: human GITR on the cell surface (JD/GITR cells; GITR-expressing T cells) (human) (UniProt Q9Y5U5); assay: cell-based or functional assay
[2] = molecular target: recombinant human EGFR on the surface of NS0/EGFR cells (EGFR-FLAG-GPI) (human) (UniProt P00533); assay: cell-based or functional assay

BS827 (bispecific antibody)
average relative luciferase unit (RLU) in JD/GITR cells, 1 µg/ml antibody, with NS0/EGFR cells [1]: 47500 RLU | average relative luciferase unit (RLU) in JD/GITR cells, 1 µg/ml antibody, with NS0 cells [1]: 17500 RLU | average relative luciferase unit (RLU) in JD/GITR cells, 1 µg/ml antibody, with NS0/EGFR cells [2]: 47500 RLU
